Key:
hCB1R [1] = target: T1, hCB1R (Homo sapiens, UniProt P21554)
hCB1R [2] = target: T1, hCB1R; remark: listed apart in the source
hCB1R [3] = target: T1, hCB1R; remark: listed apart in the source
hCB1R [4] = target: T1, hCB1R; remark: listed apart in the source
Rat recombinant TRPA1 = Rat recombinant TRPA1 (Rattus norvegicus, UniProt Q6RI86); assay: cell-based
mCB2R = mCB2R (Mus musculus, UniProt P47936); format: binding; conditions: mouse spleen membranes

Sequences of proteins named here, by UniProt entry; tags and fusion partners are left off. A change or cut given only in a name is not applied to a line headed by its entry.
UniProt P21554, whole entry: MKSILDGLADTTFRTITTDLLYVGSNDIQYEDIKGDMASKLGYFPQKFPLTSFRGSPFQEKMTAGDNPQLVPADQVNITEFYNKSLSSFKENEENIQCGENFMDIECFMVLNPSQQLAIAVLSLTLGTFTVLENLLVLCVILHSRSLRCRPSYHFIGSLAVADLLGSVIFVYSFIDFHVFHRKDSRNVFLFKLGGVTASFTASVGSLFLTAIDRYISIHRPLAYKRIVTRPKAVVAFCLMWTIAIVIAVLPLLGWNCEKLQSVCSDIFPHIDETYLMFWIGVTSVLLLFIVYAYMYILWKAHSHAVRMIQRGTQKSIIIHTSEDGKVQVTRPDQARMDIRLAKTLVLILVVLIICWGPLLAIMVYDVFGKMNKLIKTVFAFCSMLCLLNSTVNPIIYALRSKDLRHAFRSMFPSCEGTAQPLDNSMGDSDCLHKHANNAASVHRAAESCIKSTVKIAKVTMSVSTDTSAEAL
UniProt Q6RI86, whole entry: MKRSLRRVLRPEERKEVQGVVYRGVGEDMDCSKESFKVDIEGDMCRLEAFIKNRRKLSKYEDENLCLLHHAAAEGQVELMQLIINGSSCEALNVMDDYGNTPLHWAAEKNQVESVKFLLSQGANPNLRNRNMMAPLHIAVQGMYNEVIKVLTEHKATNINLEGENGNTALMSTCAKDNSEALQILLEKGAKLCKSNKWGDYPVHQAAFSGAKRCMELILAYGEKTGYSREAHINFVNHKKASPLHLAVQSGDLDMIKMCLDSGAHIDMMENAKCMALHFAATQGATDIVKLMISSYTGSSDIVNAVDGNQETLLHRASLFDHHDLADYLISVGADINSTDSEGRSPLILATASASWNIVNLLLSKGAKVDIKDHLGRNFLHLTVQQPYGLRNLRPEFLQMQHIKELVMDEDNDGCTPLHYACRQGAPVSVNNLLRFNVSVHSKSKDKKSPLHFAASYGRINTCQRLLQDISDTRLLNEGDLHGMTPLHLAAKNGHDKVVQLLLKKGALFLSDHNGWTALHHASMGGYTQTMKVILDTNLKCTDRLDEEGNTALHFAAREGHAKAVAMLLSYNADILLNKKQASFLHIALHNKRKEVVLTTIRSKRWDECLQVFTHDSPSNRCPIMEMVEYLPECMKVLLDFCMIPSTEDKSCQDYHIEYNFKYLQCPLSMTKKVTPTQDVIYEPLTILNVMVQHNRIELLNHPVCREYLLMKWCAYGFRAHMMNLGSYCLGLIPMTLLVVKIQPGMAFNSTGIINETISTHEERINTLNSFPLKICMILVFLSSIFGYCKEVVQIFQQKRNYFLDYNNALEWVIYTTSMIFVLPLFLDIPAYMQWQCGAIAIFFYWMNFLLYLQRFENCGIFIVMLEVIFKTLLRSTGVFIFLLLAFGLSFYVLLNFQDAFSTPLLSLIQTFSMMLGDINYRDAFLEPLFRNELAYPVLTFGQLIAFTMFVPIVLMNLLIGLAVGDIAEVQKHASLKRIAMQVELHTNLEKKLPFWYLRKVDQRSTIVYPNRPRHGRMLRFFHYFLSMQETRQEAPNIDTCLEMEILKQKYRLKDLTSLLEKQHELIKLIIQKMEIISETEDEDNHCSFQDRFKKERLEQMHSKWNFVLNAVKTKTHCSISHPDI
UniProt P47936: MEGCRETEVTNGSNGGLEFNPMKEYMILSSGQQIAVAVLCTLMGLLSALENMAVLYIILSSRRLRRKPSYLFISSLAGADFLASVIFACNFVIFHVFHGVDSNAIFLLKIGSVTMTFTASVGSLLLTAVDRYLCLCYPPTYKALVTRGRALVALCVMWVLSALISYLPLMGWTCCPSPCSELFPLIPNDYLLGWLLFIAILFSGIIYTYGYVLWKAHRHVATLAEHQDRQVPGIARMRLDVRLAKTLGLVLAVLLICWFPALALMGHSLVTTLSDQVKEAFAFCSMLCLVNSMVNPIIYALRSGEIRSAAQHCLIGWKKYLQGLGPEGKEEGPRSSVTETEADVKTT

Cc1c(C(=O)NN2CCCCC2)nn(-c2ccc(Cl)cc2Cl)c1-c1ccc(I)cc1 [AM251]
Emax ± SEM cAMP hCB1R (hCB1R [1]): -124 ± 9
Emax ± SEM GTPγS hCB1R (hCB1R [2]): -25 ± 5
Emax ± SEM β-AR recruitment hCB1R (hCB1R [3]): -105 ± 1
Emax ± SEM pERK hCB1R (hCB1R [4]): -116 ± 10

C=CCN=C=S [allyl isothiocyanate]
EC50 (Rat recombinant TRPA1): 1.41 ± 0.04 µM

SR144528
pKi ± SEM mCB2R (mCB2R): 10.7 ± 0.16

Reference: paper PMC5216056 (2017)
